Screening data from PubChem.
Shown are actives, neighbours in structure and some others; about 16% of the full set was active somewhere.
miR-21 FLuc – miR-21 reporter, rising signal | HeLa miR-21 FLuc reporter, luciferase, 48 h | Potency, µM (top dose mostly 38.3 µM) | 340,000 tested, under 10 active | AID 2288; active = well fitted rising curve with a large enough effect; inconclusive = small, poorly fitted or top-dose-only effect; inactive = no such curve, though single readings can be large or run the other way;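 note: miR-21 action dims this reporter so a rising signal means less miR-21 action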
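HeLa cells stably expressing CMV-driven firefly luciferase with a downstream miR-21 binding sequence, endogenously expressing miR-21, were treated with titrations (up to about 40uM final) for 48 hours at 37 degree Celsius. Luciferase luminescence was read after lysis.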
uPA surface inh – blocks generation of uPA at the cell surface; cell surface uPA generation assay, qHTS; Potency, µM (highest dose often 38.3 µM), actives largely listed as inhibitors; 330,000 compounds, 0.31% hits; active = well fitted inhibition curve with a large enough effect; inconclusive = small, poorly fitted or top-dose-only effect; inactive = no such curve, though single readings can be large or run the other way; tested in mouse RAW 264.7 cells; also: nearly all actives have a fitted effect of over 55% in size
DT40 TDP1 CPT – growth inhibition of DT40 Tdp1-/-;hTDP1 cells with camptothecin (screen for TDP1 inhibitors); chicken DT40 Tdp1-/-;hTDP1 cells + 20 nM CPT, ATP luminescence, 48 h; Potency, µM (top dose mostly 46.2 µM), hits mostly inhibitors; 420,000 compounds, 12% hits; AID 686979; also: nearly all actives have a fitted effect of over 55% in size
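Cell growth measured by CellTiter-Glo luminescence after a minimum 48 h, 37 C compound exposure with 20 nM CPT in Tdp1-knockout DT40 cells stably expressing hTDP1, seeded 400/well; qHTS titration format.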
TDP1 block – blocks human tyrosyl-DNA phosphodiesterase 1; Q9NUW8; recombinant TDP1, AlphaScreen DNA substrate cleavage; Potency, µM (doses to about 130 µM), actives largely listed as inhibitors; 350,000 compounds, 0.28% hits; also: nearly all actives have a fitted effect of over 40% in size
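Steps: enzyme plus compound, 15 min RT; add biotin/phosphotyrosine-FITC oligonucleotide (15 nM final), react 5 min; add donor/acceptor beads (10 ug/ml final), 10 min; read AlphaScreen. Tdp1 at 1 nM final.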
DT40 TDP1 no CPT – qHTS for Inhibitors of human tyrosyl-DNA phosphodiesterase 1 (TDP1): qHTS in cells in absence of CPT. Potency, µM (titrated, usually from 46.2 µM), usual class: inhibitors. 420,000 compounds, 15% hits. DT40 Tdp1-/- hTDP1 cells, no CPT, ATP luminescence, 48 h; also: nearly all actives have a fitted effect of over 55% in size
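No-CPT arm: Tdp1-/-;hTDP1 DT40 cells (400/well) plus compounds, incubated ≥48 hr at 37 °C. Readout CellTiter-Glo luminescence.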
Large screens that a line does not name were inactive; ! = not active in a repeat. Unless noted, calls follow the shape of the dose curve; as a rule, active = well fitted curve in the direction sought with a large enough effect; inconclusive = small, poorly fitted or top-dose-only effect, or another doubt; inactive = no such curve, though single readings can be large; an effect the other way counts as inactive or inconclusive.

O=C1NC[C@@H](c2ccccc2)OC(=O)[C@@H](Cc2ccc(F)cc2)CC/C=C/C[C@@H]1CC(=O)N(CCO)Cc1ccccc1	DT40 TDP1 CPT 16µM, DT40 TDP1 no CPT 15µM (no result: miR-21 FLuc, uPA surface inh)
CC(C)Oc1cccc(C(=O)C2CCCN(C(=O)c3csnn3)C2)c1 (stereo not drawn)	none
CCCn1c(=O)c2ccccc2n2c(SCCOc3ccccc3)nnc12	uPA surface inh inconclusive
COc1ccc(NC(=S)NCCc2c(C)[nH]c3ccc(OC)cc23)cc1	DT40 TDP1 CPT inconclusive, DT40 TDP1 no CPT inconclusive
O=C(CCC(=O)NNC(=O)c1ccc([N+](=O)[O-])cc1)NCc1ccccc1	none
CC#CC(C)C(OCOC)C(CC(C)Cc1cc(Br)cc(OCc2ccccc2)c1OC)OC (stereo not drawn)	none (no result: miR-21 FLuc, uPA surface inh, DT40 TDP1 CPT, DT40 TDP1 no CPT)
CSc1nsc2nc(=O)c(/C=C3\C(C)=Nc4ccc(C)cc43)c(N)n12	DT40 TDP1 CPT 16µM, DT40 TDP1 no CPT inconclusive
O=C(O)c1ccccc1Nc1ccc([N+](=O)[O-])c2nonc12	DT40 TDP1 no CPT inconclusive (no result: TDP1 block)
O=[N+]([O-])c1cc([N+](=O)[O-])c2nonc2c1Nc1ccc(O)cc1	uPA surface inh 11µM, DT40 TDP1 CPT inconclusive, DT40 TDP1 no CPT 21µM
CC(=O)c1ccc(Nc2c([N+](=O)[O-])ccc3nonc23)cc1	none (no result: TDP1 block)
O=[N+]([O-])c1cc([N+](=O)[O-])c2nonc2c1Nc1ccccc1O	uPA surface inh 5.6µM, DT40 TDP1 CPT inconclusive, DT40 TDP1 no CPT inconclusive (no result: TDP1 block)
COc1cc2nc(NCCc3cccc(C)c3)n3nc(-c4ccccc4)nc3c2cc1OC	DT40 TDP1 CPT inconclusive, DT40 TDP1 no CPT inconclusive (no result: uPA surface inh)
Oc1c(Br)cc(Br)cc1C=NCc1ccc(F)cc1	DT40 TDP1 CPT inconclusive, DT40 TDP1 no CPT inconclusive
c1ccc(-c2onc(-c3ccco3)c2-c2ccc3c(c2)OCO3)cc1	DT40 TDP1 CPT 10µM!, DT40 TDP1 no CPT 11µM! (no result: TDP1 block)
O=C(Nc1ccccc1N1CCCCC1)C1CCN(C(=O)c2ccc(Cl)cc2)CC1	DT40 TDP1 CPT 23µM, DT40 TDP1 no CPT inconclusive (no result: miR-21 FLuc)
Cc1cc(Cl)ccc1C(=O)C1CCCN(C(=O)c2cccc(N3CCCC3=O)c2)C1 (stereo not drawn)	DT40 TDP1 CPT 16µM, DT40 TDP1 no CPT inconclusive
CC(C)C(=O)NC(=S)Nc1ccccc1N1CCN(C(=O)c2ccc(Cl)cc2)CC1	DT40 TDP1 CPT inconclusive, DT40 TDP1 no CPT 16µM
CCOC(=O)c1ccc(NC(=O)C2CCN(C(=O)c3ccc(OC)c(OC)c3)CC2)cc1	DT40 TDP1 CPT inconclusive, DT40 TDP1 no CPT 21µM
O=C(c1cc2ccc3cccnc3c2[nH]1)N1CCN(c2ccccc2)CC1	none (no result: uPA surface inh)
COc1ccc(C(=O)N2CCC(C(=O)Nc3ccc(Cl)cc3)CC2)cc1	DT40 TDP1 CPT 5.8µM, DT40 TDP1 no CPT inconclusive (no result: uPA surface inh, TDP1 block)
CCN(CC)S(=O)(=O)c1ccc(N2CCCCC2)c(NC(=O)C2CCN(C(=O)c3ccc(F)cc3)CC2)c1	DT40 TDP1 CPT inconclusive, DT40 TDP1 no CPT 23µM (no result: miR-21 FLuc, TDP1 block)
O=C(Nc1ccccc1N1CCCC1)C1CCN(C(=O)c2ccc(F)cc2)CC1	none (no result: miR-21 FLuc)
Cc1ccc(NC(=O)C2CCCN(C(=O)c3ccc(Cl)cc3)C2)cc1C (stereo not drawn)	DT40 TDP1 CPT 4.1µM, DT40 TDP1 no CPT 2.9µM
COc1ccc(C(=O)N2CCC(C(=O)Nc3ccc4c(c3)OCO4)CC2)cc1	none
CC(Sc1ncc(C(F)(F)F)cc1Cl)C(=O)NC(N)=O (stereo not drawn)	none
COc1ccc(/C=C/C(=O)NC(=S)Nc2ccccc2)cc1OC	none (no result: TDP1 block)
COc1ccc(CC(=O)NNC(=O)c2ccco2)cc1	none (no result: TDP1 block)
COc1ccc(/C=C/C(=O)NC(=S)NNC(=O)c2ccco2)cc1OC	DT40 TDP1 CPT inconclusive, DT40 TDP1 no CPT 23µM
CCCOc1ccc(/C=C/C(=O)N2CCN(C(=O)c3ccco3)CC2)cc1OC	DT40 TDP1 CPT inconclusive, DT40 TDP1 no CPT 13µM (no result: miR-21 FLuc, uPA surface inh, TDP1 block)
COc1ccc(/C=C/C(=O)NC(=S)NNC(=O)c2ccco2)cc1	DT40 TDP1 CPT 15µM, DT40 TDP1 no CPT 21µM
O=C(C[C@@H]1C[C@@H]2c3cc(NC(=O)C4CCOCC4)ccc3O[C@@H]2[C@H](CO)O1)NCc1ccccn1	none (no result: miR-21 FLuc, uPA surface inh, TDP1 block)
CSc1nnc2c(n1)c(C)nn2-c1ccc(C)cc1	none
CN1CCN(C(=O)c2ccc(CSc3ccc(Cl)cc3)cc2)CC1	DT40 TDP1 CPT 21µM, DT40 TDP1 no CPT 23µM
Cc1ccc(SCc2ccc(C(=O)N3CCCCC3)cc2)cc1	DT40 TDP1 no CPT inconclusive
CN1CCN(C(=O)c2ccc(Cl)cc2)CC1	none (no result: TDP1 block)
CCOC(=O)N1CCN(C(=O)c2ccc(CSc3ccc(Cl)cc3)cc2)CC1	DT40 TDP1 CPT inconclusive, DT40 TDP1 no CPT 7.3µM
O=C(NN1C(=O)c2ccccc2NC1c1ccc([N+](=O)[O-])o1)c1ccccc1 (stereo not drawn)	DT40 TDP1 CPT inconclusive, DT40 TDP1 no CPT 16µM
O=C(NN1C(=O)c2ccccc2NC1c1ccc([N+](=O)[O-])o1)c1ccc([N+](=O)[O-])cc1 (stereo not drawn)	DT40 TDP1 CPT 18µM, DT40 TDP1 no CPT 8.2µM
O=C(NN1C(=O)c2ccccc2NC1c1ccoc1)c1ccc([N+](=O)[O-])cc1 (stereo not drawn)	none
O=C(N/N=C/c1ccc(Br)s1)c1ccccn1	DT40 TDP1 no CPT inconclusive
CCC(Oc1ccccc1F)C(=O)Nc1cc(-c2ccccc2)no1 (stereo not drawn)	DT40 TDP1 CPT inconclusive, DT40 TDP1 no CPT inconclusive (no result: uPA surface inh)
CCOC(=O)c1cc(-c2ccc(OC)cc2)nn1-c1ccccc1C(=O)O	TDP1 block 7.9µM
Nc1ccnn1Cc1cccnc1	none
Nc1c(C(=O)Nc2ccc3c(c2)OCCO3)nnn1Cc1cccc(Cl)c1	DT40 TDP1 CPT inconclusive, DT40 TDP1 no CPT 16µM (no result: miR-21 FLuc)
COc1ccc(Br)cc1Cn1nnc(C(=O)Nc2ccc3c(c2)OCCO3)c1N	uPA surface inh inconclusive, DT40 TDP1 CPT inconclusive, DT40 TDP1 no CPT 26µM
Nc1c(C(=O)Nc2ccc3c(c2)OCCO3)nnn1Cc1ccc(F)cc1	none (no result: miR-21 FLuc)
Cc1ccc(CNC(=O)COC(=O)c2cccnc2Cl)cc1	none (no result: miR-21 FLuc)
COCCOC(=O)c1c(C)nc(SCC(=O)Nc2ccc(C)cc2)c(C#N)c1-c1ccco1	DT40 TDP1 CPT inconclusive, DT40 TDP1 no CPT inconclusive
COCCOC(=O)c1c(C)nc(SCC(=O)Nc2cccc3ccccc23)c(C#N)c1-c1ccco1	DT40 TDP1 CPT inconclusive, DT40 TDP1 no CPT 29µM
Cc1cc(C(=O)COC(=O)c2cccc(S(=O)(=O)N(C)C)c2)c(C)n1CC1CCCO1 (stereo not drawn)	DT40 TDP1 CPT 16µM, DT40 TDP1 no CPT inconclusive (no result: miR-21 FLuc)
Cc1cc(C(=O)COC(=O)c2ccc3c(c2)NC(=O)CS3)c(C)n1CC1CCCO1 (stereo not drawn)	DT40 TDP1 CPT inconclusive, DT40 TDP1 no CPT 16µM
Cc1nc2cc(C(=O)NC3CCCCCC3)ccc2n1-c1ccc(Br)cc1	DT40 TDP1 CPT inconclusive, DT40 TDP1 no CPT inconclusive (no result: uPA surface inh)
